## Measured affinities in a library of Ab-14 light chain variants

Antigen: PDVDLGDISGINAS, a 14-residue peptide of the SARS-CoV-2 spike HR2 region.

Ab-14 is the parent antibody, in scFv form: VH, then a 15-residue (Gly4Ser)3 linker, then VL. The heavy chain is unchanged in all variants.
VH: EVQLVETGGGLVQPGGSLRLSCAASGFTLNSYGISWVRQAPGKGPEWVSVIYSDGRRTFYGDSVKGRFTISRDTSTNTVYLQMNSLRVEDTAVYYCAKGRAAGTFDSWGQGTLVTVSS
VL: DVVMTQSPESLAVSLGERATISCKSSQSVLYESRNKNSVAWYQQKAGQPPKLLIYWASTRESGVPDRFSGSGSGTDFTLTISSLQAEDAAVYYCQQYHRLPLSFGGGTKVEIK

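The parent was found by panning a naive human phage display library on the peptide. In library AAYL50, one, two or three CDR residues were substituted; doubles and triples were drawn at random. In AlphaSeq, yeast of one mating type display the scFv and yeast of the other type display the target. Binding brings cells together so that they mate, and sequencing counts the barcode pairs among the diploids. Scores were corrected for input abundance and mapped to Kd with protein pairs of known affinity run in the same pool. Each pool was mated in three replicate cultures.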

Variants are written as CDR1, CDR2 and CDR3 of the light chain (limits as in the source). Parent: KSSQSVLYESRNKNSVA, WASTRES, QQYHRLPLS. Every variant below is changed at K36 of the VL (sequential numbering). Scale: log10 of Kd in nM, estimated from mating counts; low values are strong binders. Averages over replicates are reported, and they cover detected replicates only. A pair that was not seen in that replicate is written "nd"; this usually means weak binding, but a binder can also be missed. Three control strains display no target. For library AAYL50, 18% of the pairings with them gave a signal, with a median of 4.19 and one signal in twenty below 2.99, so weak values seen in few replicates may be background.

Variant KSSQSVLYESRNVNSVA / WASRRES / QQYNRLPLS showed 0.70, 0.96, 0.92 (mean 0.86).
Variant KSSQSVLYESRNINSVA / RASTRES / QQYHRLPLS showed 0.81, 1.01, 1.10 (mean 0.97).
Variant KSSQSVLYPSRNFNSVA / WATTRES / QQYHRLPLS showed 1.06, 1.05, 1.07 (mean 1.06).
Variant KSSPSVLYESRNVNSVN / WASTRES / QQYHRLPLS showed 5.59, nd, nd.
Variant KSSQSVLYESRNPNSVA / WASTRED / QQYHRLPSS showed 2.47, 2.02, 3.58 (mean 2.69).
Variant ASSQSVLYESRNIFSVA / WASTRES / QQYHRLPLS showed 3.89, 3.11, 3.34 (mean 3.45).
Variant KSSQSVMYESRNNNVVA / WASTRES / QQYHRLPLS showed nd, nd, nd.
Variant KSSQSVLYESRNHASVA / EASTRES / QQYHRLPLS showed 0.03, 0.28, 0.01 (mean 0.11).
Variant ESSQSVLAESRNSNSVA / WASTRES / QQYHRLPLS showed 1.49, 1.71, 1.56 (mean 1.59).
Variant KSSQSVGYESRDCNSVA / WASTRES / QQYHRLPLS showed 3.02, nd, nd.
Variant KSSQSVLYESRDPNSVA / WASYRES / QQYHRLPLS showed 1.71, 1.65, 1.86 (mean 1.74).
Variant KSSQSVLYESRNTNSFA / WASTRMS / QQYHRLPLS showed nd, nd, nd.
Variant KSSQSVLYASRNTNSVA / WASTREK / QQYHRLPLS showed 0.86, 1.02, 1.02 (mean 0.97).
Variant KSSASVLYESRNVCSVA / WASTRES / QQYHRLPLS showed 2.63, 2.69, 2.86 (mean 2.73).
Variant KSSQSVLYESRNNNFVA / WASERES / QQYHRLPLS showed 3.04, 3.72, 3.98 (mean 3.58).
Variant KSSQTVLYESRNANSVA / WASTRES / QQYHRLPLY showed 5.26, nd, 5.25 (mean 5.26).
Variant KSSQSVLYESRNHNSDA / WASTRES / QQYHRIPLS showed nd, 3.55, nd.
Variant KSSQSVTYESRNLNSVA / WASTRES / TQYHRLPLS showed 4.05, 3.92, 5.17 (mean 4.38).
Variant KSSQSVLYESRNYNSVA / WASTQNS / QQYHRLPLS showed 3.70, 3.19, nd (mean 3.44).
Variant KSSQSVLYESRNVNSVA / TASTRES / QQYHRLPLV showed nd, nd, nd.
Variant KESQSVLYESRNTNSVR / WASTRES / QQYHRLPLS showed 4.77, 5.54, 5.04 (mean 5.12).
Variant KDSNSVLYESRNDNSVA / WASTRES / QQYHRLPLS showed 0.69, 0.99, 0.88 (mean 0.85).
Variant KSSQSVLYESRNRNSVA / AAQTRES / QQYHRLPLS showed 0.49, 0.67, 0.47 (mean 0.54).
Variant KYSQSVLYENRNFNSVA / WASTRES / QQYHRLPLS showed 0.41, 1.14, 0.88 (mean 0.81).
Variant KSSQSVLYESRYINSVA / WASTVES / QQYHRLPLS showed nd, nd, nd.
Variant KSIQSVLYESRNTNSVA / WASTRES / QQYHRLPLQ showed nd, 3.74, 2.99 (mean 3.37).
Variant KPSQSVLYESRNQNSVD / WASTRES / QQYHRLPLS showed 6.00, 4.30, nd (mean 5.15).
Variant KSSQSVLYESRNLNSVA / WASTRES / QQYHRLEIS showed 0.55, 0.73, 0.76 (mean 0.68).
Variant KSSQSVLYESRNGNSVA / WASTRES / QQYHRLPLS showed 1.22, 1.33, 1.32 (mean 1.29).
Variant CSSQYVLYESRNANSVA / WASTRES / QQYHRLPLS showed nd, nd, 2.39.
Variant KSSQSVLYESRNQNSVA / WASTRES / LQYHRLPGS showed 5.35, 4.12, 3.54 (mean 4.34).
Variant KSSQSVLYESRNWNSVA / WASTRES / QQYHRLDLS showed 0.73, 0.91, 0.87 (mean 0.84).
Variant KSSQSVLYESRNPNSVC / WASLRES / QQYHRLPLS showed nd, nd, nd.
Variant KSSQSVLYESRNENSVA / WASTQEW / QQYHRLPLS showed 3.12, 3.39, 3.91 (mean 3.47).

Excerpt, the first 4 entries:

CDR-L1	CDR-L2	CDR-L3	log10 Kd (nM) by replicate	log10 Kd (nM), mean
KSSQSVLYESRNVNSVA	WASRRES	QQYNRLPLS	0.70, 0.96, 0.92	0.86
KSSQSVLYESRNINSVA	RASTRES	QQYHRLPLS	0.81, 1.01, 1.10	0.97
KSSQSVLYPSRNFNSVA	WATTRES	QQYHRLPLS	1.06, 1.05, 1.07	1.06
KSSPSVLYESRNVNSVN	WASTRES	QQYHRLPLS	5.59, nd, nd	5.59

Source: Engelhart et al. 2022 (doi:10.1038/s41597-022-01779-4), MIT Lincoln Laboratory and A-Alpha Bio; data file from the FLAb repository.